# CycPeptMPDB entries from one study

Collected by the curators of CycPeptMPDB (Li et al. 2023) from Naylor et al. 2018, doi:10.1021/acs.jmedchem.8b01259.

PAMPA is the parallel artificial membrane permeability assay, which has no cells and reads passive diffusion. RRCK values come from monolayers of low-efflux MDCK cells. Values are log10 P with P in cm/s, so -5 is more permeable than -7. Cells with "n/a" have no entry in this list.

structure (SMILES)	PAMPA (log10 cm/s)	RRCK (log10 cm/s)
CC(C)C[C@@H]1NC(=O)[C@H](Cc2ccc(O)cc2)N(C)C(=O)[C@H]2CCCN2C(=O)[C@H](CC(C)C)NC(=O)[C@H](C)N(C)C(=O)[C@@H](C)N(C)C1=O	-5.49	-5.66
CC(C)C[C@@H]1NC(=O)[C@H](CC(C)C)N(C)C(=O)[C@@H](C)N(C)C(=O)[C@H](CC(C)C)NC(=O)[C@H](Cc2ccccc2)N(C)C(=O)[C@@H](C)N(C)C1=O	-5.07	-4.64
CC(C)C[C@@H]1NC(=O)[C@H](Cc2ccccc2)N(C)C(=O)[C@H]2CCCN2C(=O)[C@H](CC2CCCCC2)NC(=O)[C@H](CC2CCCCC2)N(C)C(=O)[C@@H](C)N(C)C1=O	-7.31	-5.50
CCC[C@H]1NC(=O)[C@H](CC(C)C)NC(=O)[C@H](Cc2ccccc2)NC(=O)[C@H]2CCCN2C(=O)[C@H](CC2CCCCC2)NC(=O)[C@H](CC2CCCCC2)NC1=O	-5.53	-5.46
CC(C)C[C@@H]1NC(=O)[C@H](Cc2ccccc2)NC(=O)[C@H]2CCCN2C(=O)[C@H](CC2CCCCC2)NC(=O)[C@H](CC2CCCCC2)NC(=O)[C@@H](CC(C)C)NC1=O	-5.80	-5.64
CC[C@@H]1C(=O)N(C)[C@@H](CC)C(=O)N[C@@H](CC(C)C)C(=O)N2CCC[C@@H]2C(=O)N(C)[C@@H](Cc2ccc(O)cc2)C(=O)N[C@@H](CC(C)C)C(=O)N1C	-5.10	-4.78
CC(C)C[C@@H]1NC(=O)[C@H](Cc2ccc(O)cc2)NC(=O)[C@H]2CCCN2C(=O)[C@H](CC(C)C)NC(=O)[C@H](CC2CCCCC2)NC(=O)[C@@H](CC(C)C)NC1=O	-5.09	-5.75
CC(C)C[C@@H]1NC(=O)[C@H](Cc2ccccc2)N(C)C(=O)[C@H]2CCCN2C(=O)[C@H](CC2CCCCC2)NC(=O)[C@H](CC2CCCCC2)N(C)C(=O)[C@@H](CC(C)C)N(C)C1=O	-7.85	-6.96
CCC[C@@H]1C(=O)N(C)[C@@H](CC2CCCCC2)C(=O)N[C@@H](CC2CCCCC2)C(=O)N2CCC[C@@H]2C(=O)N(C)[C@@H](Cc2ccccc2)C(=O)N[C@@H](CC(C)C)C(=O)N1C	n/a	-6.49
CC(C)C[C@@H]1NC(=O)[C@H](Cc2ccc(O)cc2)N(C)C(=O)[C@H]2CCCN2C(=O)[C@H](CC(C)C)NC(=O)[C@H](CC(C)C)N(C)C(=O)[C@@H](C)N(C)C1=O	-5.26	-4.92
CC(C)C[C@@H]1NC(=O)[C@H](C)N(C)C(=O)[C@H]2CCCN2C(=O)[C@H](CC(C)C)NC(=O)[C@H](CC(C)C)N(C)C(=O)[C@@H](CC(C)C)N(C)C1=O	-5.09	-4.60
CC(C)C[C@@H]1NC(=O)[C@H](Cc2ccccc2)N(C)C(=O)[C@H]2CCCN2C(=O)[C@H](CC(C)C)NC(=O)[C@H](CC(C)C)N(C)C(=O)[C@@H](C)N(C)C1=O	-5.03	-4.52
CC[C@@H]1C(=O)N(C)[C@@H](CC(C)C)C(=O)N[C@@H](CC(C)C)C(=O)N2CCC[C@@H]2C(=O)N(C)[C@@H](Cc2ccccc2)C(=O)N[C@@H](CC(C)C)C(=O)N1C	-5.36	-4.51
CC[C@@H]1NC(=O)[C@@H](CC)NC(=O)[C@H](CC(C)C)NC(=O)[C@H](Cc2ccccc2)NC(=O)[C@H]2CCCN2C(=O)[C@H](CC(C)C)NC1=O	-5.87	-5.39
CC[C@@H]1NC(=O)[C@@H](CC(C)C)NC(=O)[C@H](CC(C)C)NC(=O)[C@H](Cc2ccccc2)NC(=O)[C@H]2CCCN2C(=O)[C@H](CC(C)C)NC1=O	-5.37	-5.12

Extract of 2 entries:

structure (SMILES)	PAMPA (log10 cm/s)	RRCK (log10 cm/s)
CC(C)C[C@@H]1NC(=O)[C@H](Cc2ccc(O)cc2)N(C)C(=O)[C@H]2CCCN2C(=O)[C@H](CC(C)C)NC(=O)[C@H](C)N(C)C(=O)[C@@H](C)N(C)C1=O	-5.49	-5.66
CC[C@@H]1C(=O)N(C)[C@@H](CC)C(=O)N[C@@H](CC(C)C)C(=O)N2CCC[C@@H]2C(=O)N(C)[C@@H](Cc2ccc(O)cc2)C(=O)N[C@@H](CC(C)C)C(=O)N1C	-5.10	-4.78

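The data file gives no further conditions (lipid, pH, time, direction or concentration), and values from different papers need not be comparable. The list need not hold all peptides of the study. Peptides that the database sets to -10, its floor, are left out.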